Measurements reported in patent publication US9221795B2, “Phosphatidylinositol 3-kinase inhibitors” (Gilead Sciences, Inc., priority 2013, dated 2015).

Protein sequences, listed by entry. Tags and fused reporters are not part of them. Lines headed by an entry give the natural chain unless they say otherwise; changes in a name come on top.
UniProt O00329, whole entry: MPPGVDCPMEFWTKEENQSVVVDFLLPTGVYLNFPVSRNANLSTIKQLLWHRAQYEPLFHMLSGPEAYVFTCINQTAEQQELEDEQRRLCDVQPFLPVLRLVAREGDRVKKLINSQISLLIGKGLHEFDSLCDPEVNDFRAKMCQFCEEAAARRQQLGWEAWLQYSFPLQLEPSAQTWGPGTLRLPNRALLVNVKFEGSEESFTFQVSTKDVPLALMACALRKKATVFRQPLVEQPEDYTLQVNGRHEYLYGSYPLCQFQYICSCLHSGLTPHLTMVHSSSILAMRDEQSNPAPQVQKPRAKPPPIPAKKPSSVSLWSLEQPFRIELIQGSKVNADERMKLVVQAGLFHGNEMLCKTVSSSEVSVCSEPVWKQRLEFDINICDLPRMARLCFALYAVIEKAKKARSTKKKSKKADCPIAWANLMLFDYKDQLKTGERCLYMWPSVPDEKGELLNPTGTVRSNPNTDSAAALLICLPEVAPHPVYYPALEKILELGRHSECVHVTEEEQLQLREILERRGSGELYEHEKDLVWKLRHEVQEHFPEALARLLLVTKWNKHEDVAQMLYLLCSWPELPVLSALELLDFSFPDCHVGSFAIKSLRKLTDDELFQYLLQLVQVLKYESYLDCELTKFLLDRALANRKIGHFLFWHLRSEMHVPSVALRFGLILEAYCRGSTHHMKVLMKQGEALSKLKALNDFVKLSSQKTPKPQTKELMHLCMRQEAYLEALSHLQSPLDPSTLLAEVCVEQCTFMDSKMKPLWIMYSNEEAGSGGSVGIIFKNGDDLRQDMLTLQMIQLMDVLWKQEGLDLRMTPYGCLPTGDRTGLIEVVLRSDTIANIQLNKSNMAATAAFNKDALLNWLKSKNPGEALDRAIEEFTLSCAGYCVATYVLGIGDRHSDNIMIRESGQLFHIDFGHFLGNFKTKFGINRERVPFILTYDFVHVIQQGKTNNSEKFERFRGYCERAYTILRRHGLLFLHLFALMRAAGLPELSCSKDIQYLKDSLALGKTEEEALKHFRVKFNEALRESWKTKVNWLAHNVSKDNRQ
UniProt P27986, whole entry partner: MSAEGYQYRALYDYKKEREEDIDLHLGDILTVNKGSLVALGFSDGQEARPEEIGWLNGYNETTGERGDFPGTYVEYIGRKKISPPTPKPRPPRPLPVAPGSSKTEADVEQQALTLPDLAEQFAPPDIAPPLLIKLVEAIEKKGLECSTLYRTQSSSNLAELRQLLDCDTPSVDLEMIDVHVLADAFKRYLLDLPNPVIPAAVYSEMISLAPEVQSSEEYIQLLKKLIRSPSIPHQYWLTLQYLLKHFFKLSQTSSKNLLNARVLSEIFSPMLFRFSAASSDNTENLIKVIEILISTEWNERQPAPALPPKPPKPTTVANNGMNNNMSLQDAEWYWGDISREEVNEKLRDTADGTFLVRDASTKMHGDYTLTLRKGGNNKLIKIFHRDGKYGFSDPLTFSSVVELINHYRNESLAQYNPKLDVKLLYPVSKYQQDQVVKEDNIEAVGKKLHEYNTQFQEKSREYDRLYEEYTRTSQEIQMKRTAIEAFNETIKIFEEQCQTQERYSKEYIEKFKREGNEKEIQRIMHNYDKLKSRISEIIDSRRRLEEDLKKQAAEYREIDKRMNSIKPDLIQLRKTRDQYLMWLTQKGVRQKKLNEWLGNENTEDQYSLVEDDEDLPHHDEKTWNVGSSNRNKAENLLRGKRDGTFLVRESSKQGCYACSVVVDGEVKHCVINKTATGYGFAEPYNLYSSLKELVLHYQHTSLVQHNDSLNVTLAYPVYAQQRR

Molecular target: PI3Kδ (Homo sapiens (Human), UniProt O00329)
Test: Enzymatic activity of PI3K isoforms, TR-FRET assay (PI3Kδ)
Conditions: read-out: PI3Kδ IC50, 2× Km ATP, geometric mean if more than one value

IC50: 4 nM
SMILES: CC[C@H](Nc1nc(N)nc(N)c1C#N)c1nc2c(F)ccc(Cl)c2c(=O)n1-c1cncc(F)c1
